Test results: US20040176294A1, “Use of thyroid-stimulating hormone to induce lipolysis” (priority 2003, published 2004)

Tests used:
male ob/ob mice [1] = settings: mouse, in vivo
Protocol: 11-week old male ob/ob mice were individually caged and given a standard lab chow (4% fat) with free access to food and water. Animals were assigned to a treatment group (n=7-8, average weight 54.3+/−0.3 g per group), kept on a 12 hour dark cycle (6 PM to 6 AM), and injected each day between 7 and 9 AM. Chow consumed by each animal was weighed twice weekly. All animals received treatments IP with an injection volume of 0.1 ml. TSH was administered at 267 μg/kg, and the H3-AR agonist CL 316,243 at 0.75 mg/kg. Thyroid hormone (T4) was administered at 1.5 μg/mouse for 4 days, reduced to 1 [μg/mouse for 10 days, and returned to 1.5 μg/mouse for the next 14 days. The vehicle controls received sterile saline. TSH was obtained from Genzyme Pharmaceuticals, (Thyrogen®, catalog number 36778; Genzyme Corporation, Cambridge, Mass.), CL316,243 from Sigma Biochemicals, and T4 obtained from Calbiochem, Inc. All blood draws were performed by retro-orbital puncture under isoflurane anesthesia.
After 25 days of treatment as described above, blood was sampled from all treated animals (n=7-8/group), serum separated, and analyzed for total T4 by a commercially available kit (Biocheck, Burlingame, Calif.). […] After 25 days of treatment, the vehicle T4 levels were 5.14+/−0.08 μg/dl. […]

male ob/ob mice [2] = assay: Acute stimulation of lipolysis in vivo (serum glycerol and FFA); settings: for change from baseline in serum FFA / change from baseline in serum glycerol: TSH 300 μg/kg, overnight fast, SEM
Protocol: TSH, the β3-adrenoreceptor agonist CL 316,243 (CL), and saline vehicle were examined for stimulation of lipolysis in mice following an overnight fast. Mice (n=7-8/group) were bled immediately before IP injection of TSH (300 μg/kg), CL (1 mg/kg), or vehicle, and blood sampled by retro orbital draws at 2 and 4 hours post-injection. Lipolysis was assessed as the change in serum glycerol or FFA compared to baseline. […] TSH administration stimulated increased serum glycerol levels at 2 and 4 hours, compared to the vehicle controls (148+/−23, (p=. 09) and 165+/−15 μg/ml (p<. 001) versus 80+/−29 and −62+/−14). TSH increased serum FFA 1,477+/−219 (p<. 001) and 1506+/−94 (p<. 001) at 2 and 4 hours compared to vehicle values −20+/−77 and ˜466+/−67, respectively (all errors are standard error of the mean).
C57BL/6 male ob/ob mice, age 10 weeks, were grouped to normalize weight (n=7-8 for each treatment; average group weight=37.8 g+/−0.4 g). Mice were housed individually for 18 hours prior to treatment, at which time food was withdrawn, with free access to water given. At approximately 8 a.m., the subjects were anesthetized with halothane and blood samples taken by retro-orbital eye bleeds. The blood was allowed to clot, and the serum was separated by centrifugation and frozen for later analysis. Test substances were administered by IP injection in a volume of 0.1 ml, and the animals replaced in their cages for 2 hours with free access to water. At 2 hours, the mice were sacrificed and blood drawn by cardiac puncture.
For measuring free fatty acids in serum, the method previously described for measuring free fatty acids in conditioned medium was followed, with the following modifications. Wako reagents A and B were reconstituted to 2× the recommended concentration. 75 μl of Wako reagent A were added to 5 μl of oleic acid standard plus 5 μl of water. 75 μl of Wako reagent A were added to 5 μl of serum plus 5 μl of methanol (to mirror the oleic acid standard conditions). The 96-well plates were incubated at 37° C. for 10 minutes. 150 μl of Wako reagent B were added to each well. The 96-well plates were incubated at 37° C. for 10 minutes. The 96-well plates were allowed to sit at room temperature for 5 minutes. The 96-well plates were centrifuged in a Beckman Coulter Allegra 6R centrifuge at 3250×g for 5 minutes to remove air bubbles. The absorbance at 530 nm was measured on the Wallac Victor2 Multilabel counter.
For measuring glycerol in serum, the method previously described for measuring glycerol in conditioned medium was followed, with the modifications described below.
Sigma reagent A was reconstituted to 0.5× the recommended concentration. 200 μl of Sigma reagent A were added to 10 μl of glycerol standard. 200 μl of Sigma reagent A were added to 5 μl of serum plus 5 μl of water. The 96-well plates were incubated for 15 minutes at room temperature. The 96-well plates were centrifuged in a Beckman Coulter Allegra 6R centrifuge at 3250×g for 5 minutes to remove air bubbles. The absorbance at 530 nm was measured on the Wallac Victor2 Multilabel counter.

“TSH: ~30 kDa glycoprotein of two non-covalently linked alpha and beta subunits; Thyrogen, Genzyme Corporation” was tested, and the “circulating thyroid hormone (T4) versus vehicle controls” value (male ob/ob mice [1]) was “do not increase above the levels found in the vehicle controls”, the “total T4 in serum” value (male ob/ob mice [1]) was 5.31 ± 0.16 µg/dL and the “serum FFA compared with β3-AR agonist” value (male ob/ob mice [2]; 4-hour time point, TSH 300 μg/kg vs CL 316,243 1 mg/kg) was “significant increases over the P3-AR agonist”. The “change from baseline in serum FFA” value (male ob/ob mice [2]; 2 hours post IP injection) was 1,477+/−219 μg/ml, the “change from baseline in serum glycerol” value (male ob/ob mice [2]; 2 hours post IP injection) was 148 ± 23 µg/mL and the “change from baseline in serum FFA” value (male ob/ob mice [2]; 4 hours post IP injection) was 1506 ± 94 µg/mL. For the same substance, the “change from baseline in serum glycerol” value (male ob/ob mice [2]; 4 hours post IP injection) was 165 ± 15 µg/mL.
